In US10722512B2, “Combinations of histone deacetylase inhibitors and either HER2 inhibitors or PI3K inhibitors” (Acetylon Pharmaceuticals, Inc., priority 2013, dated 2020):

Target: T1, HDAC6 (Homo sapiens, UniProt Q9UBN7)
T1 construct: purchased BPS Biosciences
T1 sequence (Q9UBN7 1-1215): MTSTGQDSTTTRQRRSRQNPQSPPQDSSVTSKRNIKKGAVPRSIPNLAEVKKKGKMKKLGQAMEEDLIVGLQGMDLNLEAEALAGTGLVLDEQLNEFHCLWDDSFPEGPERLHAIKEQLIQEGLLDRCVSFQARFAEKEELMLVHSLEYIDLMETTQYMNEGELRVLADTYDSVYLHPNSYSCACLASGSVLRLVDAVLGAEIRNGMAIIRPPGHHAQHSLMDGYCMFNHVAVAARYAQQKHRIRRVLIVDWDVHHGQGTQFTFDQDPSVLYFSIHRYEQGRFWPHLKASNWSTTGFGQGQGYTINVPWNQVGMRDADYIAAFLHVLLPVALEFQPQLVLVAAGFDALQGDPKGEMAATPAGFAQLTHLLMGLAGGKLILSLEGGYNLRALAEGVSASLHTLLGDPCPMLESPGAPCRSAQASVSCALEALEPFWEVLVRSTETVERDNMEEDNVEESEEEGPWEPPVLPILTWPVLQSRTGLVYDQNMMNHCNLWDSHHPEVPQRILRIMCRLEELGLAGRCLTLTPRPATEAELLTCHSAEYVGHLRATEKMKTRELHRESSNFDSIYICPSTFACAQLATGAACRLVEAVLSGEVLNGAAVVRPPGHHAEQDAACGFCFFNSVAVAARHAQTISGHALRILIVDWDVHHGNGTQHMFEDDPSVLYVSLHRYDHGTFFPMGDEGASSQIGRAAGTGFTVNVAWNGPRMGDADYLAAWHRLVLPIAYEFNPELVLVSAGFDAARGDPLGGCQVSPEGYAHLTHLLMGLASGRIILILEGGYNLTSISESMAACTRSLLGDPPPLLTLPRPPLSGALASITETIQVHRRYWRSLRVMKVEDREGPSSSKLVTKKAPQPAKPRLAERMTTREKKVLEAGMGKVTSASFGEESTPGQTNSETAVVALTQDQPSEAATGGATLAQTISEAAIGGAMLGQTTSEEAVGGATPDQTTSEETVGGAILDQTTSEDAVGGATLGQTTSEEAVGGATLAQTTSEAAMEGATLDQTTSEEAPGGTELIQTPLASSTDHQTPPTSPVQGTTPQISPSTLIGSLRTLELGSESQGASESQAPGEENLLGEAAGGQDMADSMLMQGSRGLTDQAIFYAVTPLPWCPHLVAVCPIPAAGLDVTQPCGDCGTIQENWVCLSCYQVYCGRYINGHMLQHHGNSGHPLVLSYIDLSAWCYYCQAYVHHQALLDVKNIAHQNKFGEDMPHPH
Test: HDAC enzyme assays
Assay type: biochemical
Procedure: Compounds for testing were diluted in DMSO to 50 fold the final concentration and a ten point three fold dilution series was made. […] The final enzyme concentrations used in these assays were 3.3 ng/ml (HDAC1), 0.2 ng/ml (HDAC2), 0.08 ng/ml (HDAC3) and 2 ng/ml (HDAC6). […] Five μl of compound and 20 μl of enzyme were added to wells of a black, opaque 384 well plate in duplicate. Enzyme and compound were incubated together at room temperature for 10 min. Five μl of substrate was added to each well, the plate was shaken for 60 seconds and placed into a Victor 2 microliter plate reader. The development of fluorescence was monitored for 60 min. and the linear rate of the reaction was calculated. The IC50 was determined using Graph Pad Prism by a four parameter curve fit.

With `O=C(CCCCCCNC(=O)c1cnc(N(c2ccccc2)c2ccccc2)nc1)NO` [Compound A, 2-(diphenylamino)-N-(7-(hydroxyamino)-7-oxoheptyl) pyrimidine-5-carboxamide] the “potency as HDAC6 selective inhibitor” value (HDAC6) was “low nM potency” and the “selectivity of HDAC6 over class I HDACs” value (HDAC6 over Class I HDACs (HDAC1, 2 and 3)) was 13 fold.
